Source: PubChem BioAssay (EPA / NIEHS)
Only a part is listed here, and it is no random draw. Records with an inconclusive call do not appear. Activity calls are given as the source filed them. The calls were made as follows, unless noted: active = hit-call score of the fitted dose curve at least 0.9, where 1 is the maximum; inactive = score below 0.9.

The chains behind the UniProt entries cited, without tags or fusion partners. Where a name states a change or a piece, a line headed by the entry shows the natural chain unless it says otherwise.
UniProt P10275: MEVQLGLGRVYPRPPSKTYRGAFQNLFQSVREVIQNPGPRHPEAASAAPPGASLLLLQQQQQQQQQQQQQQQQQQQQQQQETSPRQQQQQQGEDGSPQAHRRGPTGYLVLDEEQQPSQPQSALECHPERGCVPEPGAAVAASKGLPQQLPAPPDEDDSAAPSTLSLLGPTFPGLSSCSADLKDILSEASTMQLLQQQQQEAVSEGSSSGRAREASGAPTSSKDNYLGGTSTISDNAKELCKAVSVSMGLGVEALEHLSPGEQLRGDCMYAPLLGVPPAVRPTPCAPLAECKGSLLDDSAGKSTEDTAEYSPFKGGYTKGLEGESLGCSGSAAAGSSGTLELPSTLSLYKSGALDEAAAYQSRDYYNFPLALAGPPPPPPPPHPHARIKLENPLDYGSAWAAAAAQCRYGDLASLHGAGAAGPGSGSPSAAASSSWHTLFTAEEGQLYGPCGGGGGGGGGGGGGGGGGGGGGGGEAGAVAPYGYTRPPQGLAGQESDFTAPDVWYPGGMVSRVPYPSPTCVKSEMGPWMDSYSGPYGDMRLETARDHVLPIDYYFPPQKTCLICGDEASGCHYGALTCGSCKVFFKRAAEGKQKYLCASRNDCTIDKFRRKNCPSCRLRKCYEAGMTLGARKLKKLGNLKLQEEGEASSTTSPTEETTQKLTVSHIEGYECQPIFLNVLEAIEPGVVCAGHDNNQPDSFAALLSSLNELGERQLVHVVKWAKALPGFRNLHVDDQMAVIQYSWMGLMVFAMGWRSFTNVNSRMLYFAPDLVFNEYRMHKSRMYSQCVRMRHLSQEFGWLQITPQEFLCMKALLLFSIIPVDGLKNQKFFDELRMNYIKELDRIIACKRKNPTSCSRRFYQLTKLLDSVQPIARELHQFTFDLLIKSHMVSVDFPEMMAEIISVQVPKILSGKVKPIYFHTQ

Assays:
[1] = CCTE_Harrill_HTTr_Viability_MCF7: CCTE's 6-hour Cell Viability Assessment for the High-Throughput Transcriptomics (HTTr) Platform, in MCF-7 cells cultured in DMEM + 10% fetal bovine serum, Harrill Lab (AID 2284010)
Outline: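 Membrane integrity was scored by high-content imaging of propidium iodide dye exclusion after a 6 h exposure across an eight-point dilution series. Data were fitted bidirectionally relative to DMSO as negative control and baseline.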

[2] = CCTE_Harrill_HTTr_Apoptosis_MCF7: CCTE's 6-hour Apoptosis Assessment for the High-Throughput Transcriptomics (HTTr) Platform, in MCF-7 cells cultured in DMEM + 10% fetal bovine serum, Harrill Lab (AID 2284011)
Outline: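 High-content imaging of CellEvent Caspase 3/7 Green signal follows a six-hour exposure, with eight concentrations per chemical. MCF-7 cells grown in DMEM plus 10% fetal bovine serum; activity fitted in both directions against DMSO.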

[3] = CCTE_Harrill_HTTr_CellCount_MCF7: CCTE's Cell Proliferation Assessment for the High-Throughput Transcriptomics (HTTr) Platform, Harrill Lab (AID 2284012; active = hit-call score of the fitted dose curve at least 0.9, where 1 is the maximum;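 also: cells exposed to compound for six hours; intended direction is loss of nuclei count meaning fewer cells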)
Outline: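 MCF-7 cells were exposed for 6 h to an eight-point dilution series; Hoechst-labeled nuclei were counted by high content imaging. Curves were fitted bidirectionally against DMSO as negative control and baseline, with signal loss indicating reduced cell count.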

[4] = CCTE_Simmons_MITO_basal_resp_rate: CCTE's HepG2 Seahorse XF Respirometric Screening Assay at Basal Respiratory State, Simmons Lab (AID 2284001); conditions: actives raise or lower the signal
Outline: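 HepG2 respirometry; 7-pt titration 125 nM–100 uM final; kinetic OCR at 6 min intervals for 72 min; n=3 biological, technical singles; DMSO baseline, gain or loss fit; fenpyroximate (decrease) and 2,4-DNP (increase) controls.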

[5] = CCTE_Simmons_MITO_max_resp_rate: CCTE's HepG2 Seahorse XF Respirometric Screening Assay at Maximal Respiratory State [uncoupled], Simmons Lab (AID 2284002); conditions: actives raise or lower the signal
Outline: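 Maximal (FCCP-uncoupled) respiration rate in HepG2, from Seahorse kinetic OCR over 72 min at 6 min cycles. Compounds at 125 nM–100 uM final, 7 points, three biological replicates; both directions fit relative to DMSO.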

[6] = CCTE_Simmons_MITO_inhib_resp_rate: CCTE's HepG2 Seahorse XF Respirometric Screening Assay at Inhibited Respiratory State [full ETC block], Simmons Lab (AID 2284006); conditions: actives raise or lower the signal
Outline: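 HepG2 cells on Seahorse XF96; oxygen consumption measured after test compound, then FCCP, then rotenone/antimycin A injections over 72 min. Test chemicals at 7 concentrations, 125 nM–100 uM final. OCR fitted bidirectionally versus DMSO.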

[7] = CCTE_Shafer_MEA_acute_spike_number: CCTE's Neural Acute Assay for Total Number of Spikes, Shafer Lab (AID 2284008);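 as to AC50: curve fitted for decrease in spike count so AC50 reflects inhibitors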
Outline: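 Total spike count from 40 min recordings before and during compound exposure (0.03-40 uM), given as per-well percent change. Cortical cultures from rat, DIV 13 or 15, 37 C; adaptive detection threshold 8x rms noise.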

[8] = CCTE_Shafer_MEA_acute_firing_rate_mean: CCTE's Neural Acute Assay for Mean Firing Rate, Shafer Lab (AID 2284009);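 also: analyzed for loss of signal so actives lower firing rate relative to DMSO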
Outline: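 Percent change in well-mean firing rate was derived from extracellular spikes detected at 8x rms noise (300-5000 Hz band-pass) before and after a 40-min compound exposure. Cultures were primary rat cortical neurons, tested at 0.03-40 uM.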

[9] = CCTE_Shafer_MEA_acute_burst_number: CCTE's Neural Acute Assay for Single-Electrode Bursts, Shafer Lab (AID 2284013)
Outline: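 Spontaneous network activity of primary rat cortical neurons was recorded extracellularly on microelectrode arrays at 37 C, with 40-min periods before and during exposure to 0.03-40 uM compound on DIV 13 or 15.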

[10] = CCTE_Shafer_MEA_acute_burst_duration_mean: CCTE's Neural Acute Assay for Mean Burst Duration, Shafer Lab (AID 2284014);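 also: hits are decreases in mean burst duration relative to DMSO controls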
Outline: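 Read-out is the per-well percent change in mean burst duration (first to last spike within a single-electrode burst) between 40-min recordings before and after compound. Cultures were primary rat cortical neurons on MEAs, dosed at 0.03-40 uM on DIV 13 or 15.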

[11] = CCTE_Shafer_MEA_acute_per_burst_spike_number_mean: CCTE's Neural Acute Assay for Average Number of Spikes Per Burst, Shafer Lab (AID 2284015);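 also: hits are decreases in mean spikes per burst versus baseline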
Outline: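 Read-out: percent change in mean spikes per burst, each well's post-exposure 40-min recording versus its own 40-min baseline. Rat cortical cultures, DIV 13 or 15, compounds 0.03-40 uM; DMSO is negative control, loss-of-signal fitting.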

[12] = CCTE_Shafer_MEA_acute_interburst_interval_mean: CCTE's Neural Acute Assay for Mean Interburst Interval, Shafer Lab (AID 2284016);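 also: percent change of mean interburst interval versus each well's own pre-dose baseline; curves fitted for decrease in interburst interval relative to DMSO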
Outline: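 Rat cortical cultures, DIV 13/15; 20 min equilibration, 40 min baseline, compound 0.03-40 uM, 40 min re-recording, 37 C. Spikes detected at 8x rms noise (300-5000 Hz band-pass). Endpoint: % change in interburst interval, fitted in loss direction vs DMSO.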

[13] = CCTE_Shafer_MEA_acute_burst_percentage_mean: CCTE's Neural Acute Assay for Percentage of Spikes in a Burst, Shafer Lab (AID 2284017);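 as to AC50: curve fitted for loss of signal so potency reflects decreased burst percentage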
Outline: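 Rat cortical cultures, DIV 13/15, 37 C. Spikes detected at 8x rms noise (300-5000 Hz band-pass). Burst spikes/total spikes averaged across electrodes per well; % change post- vs pre-treatment (40 min each), loss-of-signal fit vs DMSO.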

[14] = CCTE_Shafer_MEA_acute_burst_percentage_std: CCTE's Neural Acute Assay for Standard Deviation of Burst Percentage, Shafer Lab (AID 2284018);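 also: fitted in the negative direction so actives lower burst percentage SD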
Outline: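 Value is percent change from baseline in the across-electrode SD of spikes-in-bursts percentage, wells with >/= 10 active electrodes. Acute 40-min exposure to 0.03-40 uM on DIV 13 or 15 rat cortical cultures, recorded at 37 C after 40-min baseline.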

[15] = CPHEA_Stoker_NIS_Cytotoxicity: Cytotoxicity Assessment for CPHEA's Radioactive Iodide Uptake (RAIU) Assay for Sodium/Iodide Symporter (NIS) Inhibition, Stoker and Laws Labs (AID 2283897; active = hit-call score of the fitted dose curve at least 0.9, where 1 is the maximum)
Outline: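 ATP luminescence (Cell Titer Glo) measured viability, with loss of signal normalized to DMSO controls. Cells: hNIS-HEK293T-EPA, seeded 40 hours prior. Dosing: 0.001–100uM, 2 hours, room temperature, uptake buffer pH 7.4.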

[16] = target: Nucleoli Translocation, AR (gene 367) (UniProt P10275); test: UPITT_HCI_U2OS_AR_TIF2_Nucleoli_Antagonist: University of Pittsburgh U2OS Androgen Receptor-Transcriptional Intermediary Factor 2 (AR-TIF2) Antagonism High Content Imaging Assay for Nucleoli Translocation (AID 2283997; active = hit-call score of the fitted dose curve at least 0.9, where 1 is the maximum)
Outline: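 Measured quantity was AR-RFP fluorescence localized to nucleoli in engineered U2OS cells also bearing TIF2-GFP, acquired on automated high-content imagers. Primary testing used 20 uM compound; actives were confirmed in triplicate wells.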

[17] = target: Ratio of Nucleoli Translocation and Cytoplasm, AR (gene 367) (UniProt P10275); test: UPITT_HCI_U2OS_AR_TIF2_Nucleoli_Cytoplasm_Ratio_Antagonist: University of Pittsburgh U2OS Androgen Receptor-Transcriptional Intermediary Factor 2 (AR-TIF2) Antagonism High Content Imaging Assay for Ratio of Nucleoli Translocation and Cytoplasm (AID 2283999; active = hit-call score of the fitted dose curve at least 0.9, where 1 is the maximum;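 also: antagonists lower the DHT-driven ratio of nucleolar to cytoplasmic red signal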)
Outline: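 U2OS cells expressing RFP-tagged human AR and GFP-tagged TIF2; compounds tested at 20 uM final (0.2% DMSO) in primary screen, 0.195–50 uM (0.5% DMSO) for concentration response. Readout: nucleolar-to-cytoplasmic red fluorescence ratio by high-content imaging, fitted relative to DHT.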

[18] = target: Ratio of Nucleoli Translocation and Cytoplasm, AR (gene 367) (UniProt P10275); test: UPITT_HCI_U2OS_AR_TIF2_Nucleoli_Cytoplasm_Ratio_Agonist: University of Pittsburgh U2OS Androgen Receptor-Transcriptional Intermediary Factor 2 (AR-TIF2) Agonism High Content Imaging Assay for Ratio of Nucleoli Translocation and Cytoplasm (AID 2284000; active = hit-call score of the fitted dose curve at least 0.9, where 1 is the maximum;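 also: hits raise the red nucleolar to cytoplasm ratio above vehicle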)
Outline: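 Read-out first: nucleolar-to-cytoplasm ratio of red (AR-RFP) signal, quantified by high-content imaging in U2OS cells co-expressing TIF2-GFP. Activity is scored as signal increase over DMSO. Single-point screening used 20 uM final (0.2% DMSO).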

[19] = CCTE_Simmons_MITO_viability: CellTiter-Glo Viability Assessment for CCTE's HepG2 Seahorse XF Respirometric Screening Assay [post-hoc], Simmons Lab (AID 2284007; active = hit-call score of the fitted dose curve at least 0.9, where 1 is the maximum;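 also: cells exposed to chemical for 90 min before the ATP read; actives lower ATP signal relative to DMSO baseline meaning reduced viability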)
Outline: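 HepG2 cells from the Seahorse XF respirometry run were exposed 90 min to a 7-point series, 125 nM–100 uM final, DMSO vehicle; ATP content then read by luciferase luminescence. Three biological replicates, technical singles; loss of signal fitted versus DMSO.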

[20] = target: Nucleoli Translocation, AR (gene 367) (UniProt P10275); test: UPITT_HCI_U2OS_AR_TIF2_Nucleoli_Agonist: University of Pittsburgh U2OS Androgen Receptor-Transcriptional Intermediary Factor 2 (AR-TIF2) Agonism High Content Imaging Assay for Nucleoli Translocation (AID 2283998; active = hit-call score of the fitted dose curve at least 0.9, where 1 is the maximum)
Outline: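 Nucleolar translocation of AR-RFP, with TIF2-GFP coexpressed in human osteosarcoma U2OS, imaged by high-content fluorescence. Compounds tested singly at 20 uM final, confirmed in triplicate, then titrated 0.195–50 uM final; gain-of-signal relative to DMSO.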

Measured: AC50

O=[As]c1ccccc1 (configuration not stated)
active: [1] 11.1 µM | [2] 10.8 µM | [3] 7.85 µM

CC(C)OP(=S)(OC(C)C)SCCNS(=O)(=O)c1ccccc1
active: [7] 3.37 µM | [8] 3.36 µM | [9] 3.15 µM | [13] 31.1 µM
not listed: [15] | [16] | [17] | [18] | [19] | [20]
inactive: all other assays above

O=[N+]([O-])c1ccc([N+](=O)[O-])cc1
inactive: [1] | [2] | [3]

CCCCC(CC)CO[P+](=O)OCC(CC)CCCC (configuration not stated)
inactive: [1] | [2] | [3]

CN(C(=O)Cc1cccc2occc12)[C@H]1CC[C@@]2(CCCO2)C[C@@H]1N1CCCC1
active: [7] 5.36 µM | [8] 5.36 µM | [9] 4.36 µM | [10] 9.88 µM | [12] 20 µM | [13] 32.5 µM
inactive: [1] | [2] | [11] | [14]

Cc1cc([N+](=O)[O-])cc([N+](=O)[O-])c1O
inactive: [15] | [16] | [17] | [18] | [6] | [1] | [2] | [3]
active: [4] 1.9 µM | [5] 86.7 µM | [19] 3.02 µM

O=[P+](Oc1ccccc1)Oc1ccccc1
inactive: [16] | [17] | [18]

O=C1C2CC=CCC2C(=O)N1SC(Cl)(Cl)C(Cl)Cl (configuration not stated)
active: [20] 65.6 µM | [18] 63.3 µM | [3] 50 µM
not listed: [4] | [5] | [6] | [15] | [19]
inactive: all other assays above
